The format of the series is physicochemical. As to the method:
Lipophilicity was calculated using RP-HPLC. A stock solution of each PC was injected at different isocratic ratios ranging from 70–90% solvent B (organic) at a flow rate of 1 mL·min^−1 [32, 33, 34]. The complexes have low solubility in water, often requiring DMSO to make concentrated solutions. Yet the LogK’ calculated using these experimental data indicated high lipophilicity, which is typical for 2+ charged complexes. […] When heat was applied, they would not precipitate out of the solution after cooling. This confirmed that a lack of persistence was the cause of the “observed” low solubility in H2O. […] Other factors, such as stability and cellular absorption, would need to be considered before the potential of these Pt(II) anticancer agents could be evaluated.
Lipophilicity was evaluated using RP-HPLC, whereby LogKw is calculated by injecting a stock solution of the PC at different isocratic ratios ranging from 70–90% solvent B (organic) at a flow rate of 1 mL·min^−1. […] The dead zero volume time was determined using potassium iodide as an external dead volume marker, with further details in the Supplementary Materials. The subsequent peaks were recorded, and K was calculated using Equation (6). (6) K=tr−t0/t0 where K is the capacity factor, tr is the retention time of the analyte, and t0 is the dead time determined using a solution of KI in the same column. […]

“[Pt(2-pyrrolidin-2-yl pyridine)(1R,2R-(+)-diaminocyclohexane)]^2+ [Complex 4b]” returned a Lipophilicity of 2.65 ± 0.02.

As to “[Pt(2-(1H-Imidazol-2-yl)pyridine)(1R,2R-(+)-diaminocyclohexane)]^2+ [Complex 5b]”, the Lipophilicity came out at 2.26 ± 0.02.

Values taken from paper PMC10742472, “Synthesis and Characterisation of Platinum(II) Diaminocyclohexane Complexes with Pyridine Derivatives as Anticancer Agents” (International Journal of Molecular Sciences, 2023).
